The source of these data is patent publication US6936585B2, “Corticotropin releasing factor 2 receptor agonists” (priority 2002, dated 2005).

One assay deals with T1, CRF2R (Homo sapiens, UniProt Q13324).
T1 sequence (Q13324 1-411): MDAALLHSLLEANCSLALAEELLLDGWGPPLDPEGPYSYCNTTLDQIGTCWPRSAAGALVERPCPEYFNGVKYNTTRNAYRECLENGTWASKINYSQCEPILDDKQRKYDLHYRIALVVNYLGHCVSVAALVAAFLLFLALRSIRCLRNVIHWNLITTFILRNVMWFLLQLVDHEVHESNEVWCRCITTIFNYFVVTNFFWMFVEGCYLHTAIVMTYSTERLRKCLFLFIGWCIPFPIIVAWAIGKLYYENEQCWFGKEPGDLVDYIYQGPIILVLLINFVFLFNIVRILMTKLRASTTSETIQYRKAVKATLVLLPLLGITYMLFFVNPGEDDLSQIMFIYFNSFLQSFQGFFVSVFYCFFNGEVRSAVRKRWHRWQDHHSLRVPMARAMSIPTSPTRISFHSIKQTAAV
Put plainly: CRF2R agonist activation (EC50 / Emax), called comparative CRF binding. The format is cell-based. The settings on record: for Emax: read-out: CRF2R Emax. In a few lines:
(§1)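 Cells expressing full-length human CRF1R or CRF2R were exposed to peptide or vehicle control, and receptor activation was gauged as cAMP induction. cAMP was measured in cell lysates or via a cAMP-responsive element driving a reporter gene such as luciferase, CAT, GFP or alkaline phosphatase.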

For the next assay, the target named is T2, CRF1R (Homo sapiens, UniProt P34998).
T2 sequence (P34998 24-415): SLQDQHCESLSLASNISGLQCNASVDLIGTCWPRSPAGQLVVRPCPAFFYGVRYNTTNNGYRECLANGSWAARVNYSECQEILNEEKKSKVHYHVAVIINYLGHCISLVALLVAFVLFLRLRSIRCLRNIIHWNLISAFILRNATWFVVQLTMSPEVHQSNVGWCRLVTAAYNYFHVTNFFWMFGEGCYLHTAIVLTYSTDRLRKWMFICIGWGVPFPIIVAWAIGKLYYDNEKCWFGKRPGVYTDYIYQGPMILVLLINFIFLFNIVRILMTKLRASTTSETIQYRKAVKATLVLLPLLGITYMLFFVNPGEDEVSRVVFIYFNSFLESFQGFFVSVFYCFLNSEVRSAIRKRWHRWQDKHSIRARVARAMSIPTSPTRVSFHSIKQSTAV
Put plainly: CRF1R agonist activation (EC50 / Emax), called comparative CRF binding. The format is cell-based. Particulars: for Emax: read-out: CRF1R Emax. In a few lines: as §1

The term Emax denotes the size of the effect at its maximum, as opposed to the concentration needed. Regarding `CC[C@H](C)[C@H](NC(=O)[C@@H](NC(=O)[C@H](C)NC(=O)[C@H](CC(C)C)NC(=O)[C@H](CC(C)C)NC(=O)[C@H](CC(C)C)NC(=O)[C@H](C)NC(=O)[C@H](CC(N)=O)NC(=O)[C@H](CC(N)=O)NC(=O)[C@H](C)NC(=O)[C@H](C)NC(=O)[C@H](CCC(N)=O)NC(=O)[C@H](CCC(N)=O)NC(=O)[C@H](CCCCN)NC(=O)[C@H](CCC(=O)O)NC(=O)[C@H](CCCCN)NC(=O)[C@H](CCC(=O)O)NC(=O)[C@H](CCC(N)=O)NC(=O)[C@H](CCCCN)NC(=O)[C@H](CCC(=O)O)NC(=O)[C@@H](NC(=O)[C@H](CCC(=O)O)NC(=O)[C@@H](NC(=O)[C@H](C)NC(=O)[C@H](CCCCN)NC(=O)[C@H](CCCNC(=N)N)NC(=O)[C@H](CC(C)C)NC(=O)[C@H](CC(C)C)NC(=O)[C@H](CCC(N)=O)NC(=O)[C@H](Cc1ccccc1)NC(=O)[C@@H]1CCCN1C(=O)[C@H](CC(C)C)NC(=O)[C@H](CC(=O)O)NC(=O)[C@@H](NC(=O)[C@H](CO)NC(=O)[C@@H](NC(=O)[C@@H]1CCCN1C(=O)[C@@H]1CCCN1C(=O)CNC(=O)[C@@H]1CCC(=O)N1)[C@@H](C)CC)[C@@H](C)CC)[C@@H](C)CC)[C@@H](C)CC)[C@@H](C)O)C(N)=O` [compound 364], the Emax on CRF2R worked out at 100%; at CRF1R, 27%.

Take `CC[C@H](C)[C@H](NC(=O)[C@H](CCC(=O)O)NC(=O)[C@@H](NC(=O)[C@H](CCSC)NC(=O)[C@H](CCCCN)NC(=O)[C@H](CCCNC(=N)N)NC(=O)[C@H](CC(C)C)NC(=O)[C@H](CC(C)C)NC(=O)[C@H](CCC(N)=O)NC(=O)[C@H](Cc1ccccc1)NC(=O)[C@@H]1CCCN1C(=O)[C@H](CC(C)C)NC(=O)[C@H](CC(=O)O)NC(=O)[C@@H](NC(=O)[C@H](CO)NC(=O)[C@@H](NC(=O)[C@@H]1CCCN1C(=O)[C@@H]1CCCN1C(=O)CNC(=O)[C@@H]1CCC(=O)N1)[C@@H](C)CC)[C@@H](C)CC)[C@@H](C)CC)C(=O)N[C@@H](CCC(=O)O)C(=O)N[C@@H](CCCCN)C(=O)N[C@@H](CCC(N)=O)C(=O)N[C@@H](CCC(=O)O)C(=O)N[C@@H](CCCCN)C(=O)N[C@@H](CCC(=O)O)C(=O)N[C@@H](CCCCN)C(=O)N[C@@H](CCC(N)=O)C(=O)N[C@@H](CCC(N)=O)C(=O)N[C@@H](C)C(=O)N[C@@H](C)C(=O)N[C@@H](C)C(=O)N[C@@H](CC(N)=O)C(=O)N[C@@H](CCCNC(=N)N)C(=O)N[C@@H](CC(C)C)C(=O)N[C@@H](CC(C)C)C(=O)N[C@@H](CC(C)C)C(=O)N[C@@H](CC(=O)O)C(=O)N[C@H](C(=O)N[C@H](C(N)=O)C(C)C)[C@@H](C)O` [compound 15]: the Emax on CRF2R is 97%; on CRF1R, 86%.

For the molecule `CC[C@H](C)[C@H](NC(=O)[C@@H](NC(=O)[C@H](C)NC(=O)[C@H](CC(C)C)NC(=O)[C@H](CC(C)C)NC(=O)[C@H](CC(C)C)NC(=O)[C@H](C)NC(=O)[C@H](CC(N)=O)NC(=O)[C@H](CC(N)=O)NC(=O)[C@H](C)NC(=O)[C@H](C)NC(=O)[C@H](CCC(N)=O)NC(=O)[C@H](CCC(N)=O)NC(=O)[C@H](CCCCN)NC(=O)[C@H](CCC(=O)O)NC(=O)[C@H](CCCCN)NC(=O)[C@H](CCC(=O)O)NC(=O)[C@H](CCC(N)=O)NC(=O)[C@H](CCCCN)NC(=O)[C@H](CCC(=O)O)NC(=O)[C@@H](NC(=O)[C@H](CCC(=O)O)NC(=O)[C@@H](NC(=O)[C@H](CCSC)NC(=O)[C@H](CCCCN)NC(=O)[C@H](CCCNC(=N)N)NC(=O)[C@H](CC(C)C)NC(=O)[C@H](CC(C)C)NC(=O)[C@H](Cc1ccccc1)NC(=O)[C@H](Cc1ccccc1)NC(=O)[C@@H]1CCCN1C(=O)[C@H](CC(C)C)NC(=O)[C@H](CC(=O)O)NC(=O)[C@@H](NC(=O)[C@H](CO)NC(=O)[C@@H](NC(=O)[C@@H]1CCCN1C(=O)[C@@H]1CCCN1C(=O)CNC(=O)[C@@H]1CCC(=O)N1)[C@@H](C)CC)[C@@H](C)CC)[C@@H](C)CC)[C@@H](C)CC)[C@@H](C)O)C(N)=O` [compound 319], the Emax on CRF2R turned out to be 95%; at CRF1R, 88.3%.

Turning to `CC[C@H](C)[C@H](NC(=O)[C@@H](NC(=O)[C@H](CC(=O)O)NC(=O)[C@H](CC(C)C)NC(=O)[C@H](CC(C)C)NC(=O)[C@H](CC(C)C)NC(=O)[C@H](CCCNC(=N)N)NC(=O)[C@H](CC(N)=O)NC(=O)[C@H](CC(N)=O)NC(=O)[C@H](C)NC(=O)[C@H](C)NC(=O)[C@H](CCC(N)=O)NC(=O)[C@H](CCC(N)=O)NC(=O)[C@H](CCCCN)NC(=O)[C@H](CCC(=O)O)NC(=O)[C@H](CCCCN)NC(=O)[C@H](CCC(=O)O)NC(=O)[C@H](CCC(N)=O)NC(=O)[C@H](CCCCN)NC(=O)[C@H](CCC(=O)O)NC(=O)[C@@H](NC(=O)[C@H](CCC(=O)O)NC(=O)[C@@H](NC(=O)[C@H](CCSC)NC(=O)[C@H](CCCCN)NC(=O)[C@H](CCCNC(=N)N)NC(=O)[C@H](CC(C)C)NC(=O)[C@H](CC(C)C)NC(=O)[C@H](CCC(N)=O)NC(=O)[C@H](CC(C)C)NC(=O)[C@@H]1CCCN1C(=O)[C@H](CC(C)C)NC(=O)[C@H](CC(=O)O)NC(=O)[C@@H](NC(=O)[C@H](CO)NC(=O)[C@@H](NC(=O)[C@@H]1CCCN1C(=O)[C@@H]1CCCN1C(=O)CNC(=O)[C@@H]1CCC(=O)N1)[C@@H](C)CC)[C@@H](C)CC)[C@@H](C)CC)[C@@H](C)CC)[C@@H](C)O)C(N)=O` [compound 80], the maximal effect (Emax) at CRF2R came out at 88%; at CRF1R it was 55%.

Broadly, the EC50 is the concentration needed to bring the measured effect to its halfway point. Regarding `CC[C@H](C)[C@H](NC(=O)[C@@H](NC(=O)[C@H](CC(=O)O)NC(=O)[C@H](CC(C)C)NC(=O)[C@H](CC(C)C)NC(=O)[C@H](CC(C)C)NC(=O)[C@H](CCCNC(=N)N)NC(=O)[C@H](CC(N)=O)NC(=O)[C@H](CC(N)=O)NC(=O)[C@H](C)NC(=O)[C@H](C)NC(=O)[C@H](CCC(N)=O)NC(=O)[C@H](CCC(N)=O)NC(=O)[C@H](CCCCN)NC(=O)[C@H](CCC(=O)O)NC(=O)[C@H](CCCCN)NC(=O)[C@H](CCC(=O)O)NC(=O)[C@H](CCC(N)=O)NC(=O)[C@H](CCCCN)NC(=O)[C@H](CCC(=O)O)NC(=O)[C@@H](NC(=O)[C@H](CCC(=O)O)NC(=O)[C@@H](NC(=O)[C@H](CCSC)NC(=O)[C@H](CCCCN)NC(=O)[C@H](CCCNC(=N)N)NC(=O)[C@H](CC(C)C)NC(=O)[C@H](CC(C)C)NC(=O)[C@H](CCCNC(=N)N)NC(=O)[C@@H](NC(=O)[C@@H]1CCCN1C(=O)[C@H](CC(C)C)NC(=O)[C@H](CC(=O)O)NC(=O)[C@@H](NC(=O)[C@H](CO)NC(=O)[C@@H](NC(=O)[C@@H]1CCCN1C(=O)[C@@H]1CCCN1C(=O)CNC(=O)[C@@H]1CCC(=O)N1)[C@@H](C)CC)[C@@H](C)CC)[C@@H](C)CC)[C@@H](C)CC)[C@@H](C)CC)[C@@H](C)O)C(N)=O` [compound 38], the EC50 on CRF2R was 71.9 nM; at CRF1R (CRF1R EC50), over 1000 nM. The Emax on CRF2R worked out at 91%; on CRF1R, 11%.

For the molecule `CC[C@H](C)[C@H](NC(=O)[C@H](CCCNC(=N)N)NC(=O)[C@H](C)NC(=O)[C@H](CC(C)C)NC(=O)[C@H](CC(C)C)NC(=O)[C@H](CCCNC(=N)N)NC(=O)[C@H](C)NC(=O)[C@H](CC(N)=O)NC(=O)[C@H](CC(N)=O)NC(=O)[C@H](C)NC(=O)[C@H](C)NC(=O)[C@H](CCC(N)=O)NC(=O)[C@H](CCC(N)=O)NC(=O)[C@H](CCCCN)NC(=O)[C@H](CCC(=O)O)NC(=O)[C@H](CCCCN)NC(=O)[C@H](CCC(=O)O)NC(=O)[C@H](CCC(N)=O)NC(=O)[C@H](CCCCN)NC(=O)[C@H](CCC(=O)O)NC(=O)[C@@H](NC(=O)[C@H](CCC(=O)O)NC(=O)[C@@H](NC(=O)[C@@H](NC(=O)[C@H](CCCCN)NC(=O)[C@H](CCCNC(=N)N)NC(=O)[C@H](CC(C)C)NC(=O)[C@H](CC(C)C)NC(=O)[C@H](Cc1c[nH]c2ccccc12)NC(=O)[C@@H](NC(=O)[C@@H]1CCCN1C(=O)[C@H](CC(C)C)NC(=O)[C@H](CC(=O)O)NC(=O)[C@@H](NC(=O)[C@H](CO)NC(=O)[C@@H](NC(=O)[C@@H]1CCCN1C(=O)[C@@H]1CCCN1C(=O)CNC(=O)[C@@H]1CCC(=O)N1)[C@@H](C)CC)[C@@H](C)CC)[C@@H](C)O)C(C)C)[C@@H](C)CC)[C@@H](C)CC)C(N)=O` [compound 291], the Emax at CRF2R turned out to be 63.8%; on CRF1R, 4.75%.
